Measurements taken from IntAct's records for PubMed 17476304.

B1: Cyclic AMP-responsive element-binding protein 1 (Homo sapiens), P16220-1 (parent)
chain: MTMESGAENQQSGDAAVTEAENQQMTVQAQPQIATLAQVSMPAAHATSSAPTVTLVQLPNGQTVQVHGVIQAAQPSVIQSPQVQTVQSSCKDLKRLFSGTQISTIAESEDSQESVDSVTDSQKRREILSRRPSYRKILNDLSSDAPGVPRIEEEKSEEETSAPAITTVTVPTPIYQTSSGQYIAITQGGAIQLANNGTDGVQGLQTLTMTNAAATQPGTTILQYAQTTDGQQILVPSNQVVVQAASGDVQTYQIRTAPTSTIAPGVVMASSPALPTQPAEEAARKREVRLMKNREAARECRRKKKEYVKCLENRVAVLENQNKTLIEELKALKDLYCHKSD

Variants of: B1
Conditions: with ep300_human EP300, Q09472

Variant | effect of a mutation on the interaction
S129L | increasing interaction

Variants of: B1
Conditions: with cbp_human CREBBP

Variant | effect of a mutation on the interaction
S142L | increasing interaction

Variants of: B1
Conditions: with ep300_human EP300, Q09472
Remark: another data set of the same source

Variant | effect of a mutation on the interaction
S133A | increasing interaction
